These results are taken from US7704490B2 (Institut Pasteur, priority 1998, dated 2010).

In one assay the test system is STAT. Put plainly: Electrophoretic mobility shift assay of STAT activation in KIT225 nuclear extracts. Type of assay: cell-based, human. Particulars: STAT-3 and STAT-5; β-casein, GAS and GIRE probes. An excerpt:
The same results were obtained with two other probes (GAS and GIRE).

In a further assay the test system is mAb 19B11. As to the kind of experiment: ELISA inhibition of mAb 19B11 binding to IL-2 coated plates. The arrangement: species or system mouse. Particulars: control mAb. (In general: In an ELISA, binding on a coated surface is turned into a signal by an enzyme label.)
Another assay concerns mAb H2-8. Put plainly: ELISA inhibition of mAb H2-8 binding to IL-2 coated plates. The conditions noted are these: mAb at about 50% of maximum binding, preincubated with inhibitor. Set-up: species or system mouse. As to the method: Control is represented by non coated plates.
Binding inhibition experiments were performed to further characterize the specificity of mAb H2-8. […] H2-8 was preincubated with different peptides including five decapeptides (1-10, 5-15, 10-20, 15-25, 20-30).

In the case of “IL-2: Human IL-2, a protein of 133 amino acids”, the STAT activation entry in the assay with STAT is reported as “show a STAT activation”. For the same substance, the “inhibition of the binding of mAb 19B11 to IL-2” value with mAb 19B11 is reported as “inhibited”. Besides, the “inhibition of the binding of mAb H2-8 to IL-2” value with mAb H2-8 is on record as “able to inhibit”.
